Measured values: ChEMBL document CHEMBL3886403, “Inhibitors of beta-secretase” (2015)

Target: Beta-secretase 1 (Homo sapiens, UniProt P56817)
Experiment: The substrate was dissolved at 1 mg/mL in DMSO.The assay was performed in the presence of 5 ul OptiMEM (supernatant collected over 24 hours and cleared from cellular debris by centrifugation) containing the ectodomain of BACE, 25 ul water containing the desired concentration of test compound and 1% DMSO, substrate peptide, 20 mM NaOAc, pH 4.4 and 0.04% Triton-X100 in a total assay volume of 50 ul in a 384 well plate. In general, 25 ul of compound dilution were given to the plate followed by the addition of 10 ul of BACE.

Row | Compound | IC50 [nM]
1 | COc1cccc(Oc2ccc3c(c2)C2(N=C(N)N(C)C2=O)C2(CCC(OC)CC2)C3)c1 (configuration not stated) | 42.8
2 | COCCN1C(=O)C2(N=C1N)c1cc(-c3cccc(C#N)c3)ccc1CC21CCC(OC)CC1 (configuration not stated) | 7.4
